Data reported in patent US20240050395A1 (priority 2020, published 2024).

Tested on: CBE-treated SH-SY5Y cells
Assay: Viability of CBE-treated cells by MTT (Gaucher disease model)
Settings: 50 nM Baf-A1 with 100 μM CBE + 25 nM, 50 nM and 75 nM PAO

Bafilomycin A1
effect on the protective effect of PAO (cell viability, MTT): decreased the protective effect of PAO
